Drawing on ChEMBL document CHEMBL1125838, “Conformational restriction of the phenylalanine residue in a cyclic opioid peptide analogue: effects on receptor selectivity and stereospecificity” (J Med Chem, 1991), this text covers Ki for one compound.

By UniProt entry, the sequences of proteins in these tests, tags left out.
UniProt P33535, whole entry: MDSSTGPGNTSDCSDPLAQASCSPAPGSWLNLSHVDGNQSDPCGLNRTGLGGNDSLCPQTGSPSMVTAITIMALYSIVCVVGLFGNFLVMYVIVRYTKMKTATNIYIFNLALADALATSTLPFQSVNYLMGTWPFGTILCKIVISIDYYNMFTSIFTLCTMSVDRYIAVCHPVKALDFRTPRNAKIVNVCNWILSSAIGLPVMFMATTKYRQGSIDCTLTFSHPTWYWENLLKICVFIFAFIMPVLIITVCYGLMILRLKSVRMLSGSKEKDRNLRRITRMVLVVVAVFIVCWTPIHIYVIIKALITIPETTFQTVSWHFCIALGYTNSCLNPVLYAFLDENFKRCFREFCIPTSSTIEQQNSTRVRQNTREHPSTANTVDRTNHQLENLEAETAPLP

A word on the Ki: it is the dissociation constant of the complex between target and ligand, obtained from inhibition or displacement.

In this assay the target is Mu-type opioid receptor (Rattus norvegicus, UniProt P33535). In words: Displacement of [3H]DAGO from rat brain membrane opioid receptor mu. (Loss of bound radioactivity is the signal in a displacement assay; it reports binding, not function.)

The compound `NC(=O)[C@@H]1CCC(=O)NCCC[C@@H](NC(=O)[C@@H](N)Cc2ccc(O)cc2)C(=O)N[C@H](Cc2ccccc2)C(=O)N1` returned a Ki of 1660 nM. In other words, the single-digit micromolar range.
